The target in the assay is Human immunodeficiency virus type 1 integrase (Human immunodeficiency virus 1, UniProt Q7ZJM1). In words: Inhibition of HIV1 integrase by LTR cleavage assay.
Usually IC50 stands for the midpoint of a concentration-inhibition curve. Low values mean greater potency, high ones weaker potency. Turning to `Cc1nc2ccc(Cl)cc2c(-c2ccccc2)c1CC(=O)O`, half-maximal inhibition (IC50) required 9.1 µM. Turning to `Cc1nc2ccc(Br)cc2c(-c2ccccc2)c1CC(=O)O`, the half-maximal inhibitory concentration (IC50) was determined as 5.1 µM.

Regarding `Cc1nc2ccccc2c(-c2ccc(Cl)cc2)c1CC(=O)O`, 3.1 µM corresponded to half-maximal inhibition (IC50).

The record behind these values is ChEMBL document CHEMBL3259658, “Discovery of BI 224436, a Noncatalytic Site Integrase Inhibitor (NCINI) of HIV-1” (ACS Med Chem Lett, 2014).
